According to US8299073B2, “P38 MAP kinase inhibitors” (Respivert Ltd., priority 2008, dated 2012):
pIC50: −log10 of the molar value.

Sequences of proteins named here, by UniProt entry; tags and fusion partners are left off.
UniProt Q16539, whole entry: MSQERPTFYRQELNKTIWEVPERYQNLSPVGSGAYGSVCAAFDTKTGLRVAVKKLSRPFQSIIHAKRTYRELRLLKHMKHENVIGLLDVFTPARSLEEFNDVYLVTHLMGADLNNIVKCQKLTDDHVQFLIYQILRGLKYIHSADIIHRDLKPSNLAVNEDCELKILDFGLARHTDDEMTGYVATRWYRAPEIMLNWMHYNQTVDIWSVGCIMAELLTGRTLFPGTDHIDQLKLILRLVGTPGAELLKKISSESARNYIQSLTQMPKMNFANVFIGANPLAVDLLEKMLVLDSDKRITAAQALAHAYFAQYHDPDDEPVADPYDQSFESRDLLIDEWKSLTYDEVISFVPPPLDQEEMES

Biological target: T1, p38 MAPK alpha (MAPK14: Invitrogen) (Homo sapiens, UniProt Q16539)
T1 construct: purchased Invitrogen
Assay: Enzyme inhibition assay (FRET, Z-LYTE), p38 MAPK alpha, via activation of MAPKAP-K2
Assay type: biochemical
Conditions: read-out: IC50 values p38α enzyme

SMILES: COCC(=O)Nc1cnccc1COc1ccc(NC(=O)Nc2cc(C(C)(C)C)nn2-c2ccc(C)cc2)c2ccccc12 [Example 35, N-(4-((4-(3-(3-tert-Butyl-1-p-tolyl-1H-pyrazol-5-yl)ureido)naphthalen-1-yloxy)methyl)pyridin-3-yl)-2-methoxyacetamide]
- pIC50: > 8.00
